Measured values published in patent publication US11065231B2, “Compounds and methods for the targeted degradation of interleukin-1 receptor- associated kinase 4 polypeptides” (Arvinas Operations, Inc., priority 2017, dated 2021).

The chains behind the UniProt entries cited, without tags or fusion partners.
UniProt Q9NWZ3, whole entry: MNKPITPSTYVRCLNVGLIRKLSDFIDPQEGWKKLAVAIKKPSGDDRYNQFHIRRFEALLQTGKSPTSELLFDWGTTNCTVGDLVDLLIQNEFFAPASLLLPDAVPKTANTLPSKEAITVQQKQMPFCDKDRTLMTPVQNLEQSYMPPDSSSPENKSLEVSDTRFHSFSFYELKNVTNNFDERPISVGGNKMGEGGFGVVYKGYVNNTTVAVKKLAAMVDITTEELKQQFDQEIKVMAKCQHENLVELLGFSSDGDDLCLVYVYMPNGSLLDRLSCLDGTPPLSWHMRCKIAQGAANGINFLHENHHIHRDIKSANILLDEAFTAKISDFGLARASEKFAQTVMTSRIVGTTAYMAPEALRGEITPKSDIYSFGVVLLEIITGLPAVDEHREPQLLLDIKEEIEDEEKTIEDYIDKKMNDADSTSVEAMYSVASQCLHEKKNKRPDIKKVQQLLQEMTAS
UniProt P51617, whole entry: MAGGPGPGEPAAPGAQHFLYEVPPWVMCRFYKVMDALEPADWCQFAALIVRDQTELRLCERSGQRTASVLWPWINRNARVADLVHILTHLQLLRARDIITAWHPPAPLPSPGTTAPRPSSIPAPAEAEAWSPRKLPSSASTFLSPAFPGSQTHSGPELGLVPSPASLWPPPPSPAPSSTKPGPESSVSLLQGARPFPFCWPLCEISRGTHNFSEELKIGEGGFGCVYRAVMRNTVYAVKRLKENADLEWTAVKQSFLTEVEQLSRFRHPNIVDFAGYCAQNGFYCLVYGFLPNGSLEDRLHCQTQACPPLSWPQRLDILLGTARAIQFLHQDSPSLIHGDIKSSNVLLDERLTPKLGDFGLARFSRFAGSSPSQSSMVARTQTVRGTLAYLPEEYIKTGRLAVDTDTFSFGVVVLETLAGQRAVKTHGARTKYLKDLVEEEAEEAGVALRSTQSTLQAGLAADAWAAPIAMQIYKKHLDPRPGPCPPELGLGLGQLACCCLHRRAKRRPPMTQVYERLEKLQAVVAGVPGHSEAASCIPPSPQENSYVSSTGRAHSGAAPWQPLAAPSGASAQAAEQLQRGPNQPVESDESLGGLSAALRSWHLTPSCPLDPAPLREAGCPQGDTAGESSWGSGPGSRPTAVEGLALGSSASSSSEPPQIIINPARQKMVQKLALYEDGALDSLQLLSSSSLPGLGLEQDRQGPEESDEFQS

What was measured:
IRAK4 = IRAK4 (Homo sapiens (Human), UniProt Q9NWZ3); experiment: Western blots of IRAK4 protein degradation; type: cell-based; details: from western blots
IRAK1 = IRAK1 (Homo sapiens (Human), UniProt P51617); experiment: Western blots of IRAK1 protein degradation; type: cell-based

SMILES: O=C1CCC(N2C(=O)c3ccc(OCCOCCOCCN4CCN(Cc5ccc6c(c5)nc(NC(=O)c5cccc(C(F)(F)F)c5)n6[C@H]5CC[C@@H](CO)CC5)CC4)cc3C2=O)C(=O)N1 (some centres unmarked) [compound 3, N-(5-((4-(2-(2-(2-((2-(2,6-dioxopiperidin-3-yl)-1,3-dioxoisoindolin-5-yl)oxy)ethoxy)ethoxy)ethyl)piperazin-1-yl)methyl)-1-((1s,4s)-4-(hydroxymethyl)cyclohexyl)-1H-benzo[d]imidazol-2-yl)-3-(trifluoromethyl)benzamide]
- Dmax (IRAK4): 80%
- degradation of IRAK1 (IRAK1): no significant degradation was observed
